The values below come from US20080026409A1, “SALT-SENSITIVE HYPERTENSION” (THE BOARD OF TRUSTEES OF THE UNIVERSITY OF ILLINOIS, priority 2006, published 2008).

Chains of the proteins cited; added tags and fusions are not shown.
UniProt Q9UIQ6, whole entry: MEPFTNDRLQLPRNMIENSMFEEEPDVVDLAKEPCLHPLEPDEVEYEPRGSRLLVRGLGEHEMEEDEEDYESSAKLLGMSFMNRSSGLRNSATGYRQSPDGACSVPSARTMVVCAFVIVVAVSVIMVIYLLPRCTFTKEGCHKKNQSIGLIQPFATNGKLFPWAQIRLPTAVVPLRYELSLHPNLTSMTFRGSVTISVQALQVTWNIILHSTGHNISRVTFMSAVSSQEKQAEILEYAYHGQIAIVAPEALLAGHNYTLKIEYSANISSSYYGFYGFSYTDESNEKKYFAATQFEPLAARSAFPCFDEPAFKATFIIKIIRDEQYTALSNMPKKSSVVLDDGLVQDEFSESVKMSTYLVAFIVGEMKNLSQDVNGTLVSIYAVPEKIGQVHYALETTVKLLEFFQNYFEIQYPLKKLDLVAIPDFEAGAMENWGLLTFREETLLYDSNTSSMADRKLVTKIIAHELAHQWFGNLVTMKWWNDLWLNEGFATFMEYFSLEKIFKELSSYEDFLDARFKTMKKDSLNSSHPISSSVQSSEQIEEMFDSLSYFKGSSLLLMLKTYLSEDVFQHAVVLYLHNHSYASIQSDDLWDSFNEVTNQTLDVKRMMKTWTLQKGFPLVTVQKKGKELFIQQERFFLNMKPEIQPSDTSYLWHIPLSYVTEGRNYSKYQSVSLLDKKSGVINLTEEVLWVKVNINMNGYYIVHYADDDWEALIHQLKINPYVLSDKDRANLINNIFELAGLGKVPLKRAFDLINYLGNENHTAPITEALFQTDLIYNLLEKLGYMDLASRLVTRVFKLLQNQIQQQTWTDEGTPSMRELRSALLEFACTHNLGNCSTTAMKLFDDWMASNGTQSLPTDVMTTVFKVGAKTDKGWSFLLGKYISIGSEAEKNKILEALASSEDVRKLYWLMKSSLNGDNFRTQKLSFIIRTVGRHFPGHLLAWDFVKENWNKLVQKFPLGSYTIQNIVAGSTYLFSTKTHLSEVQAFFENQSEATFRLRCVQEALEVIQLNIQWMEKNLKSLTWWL

Assay [1] relates to Na/K ATPase in LLC-PK1 and HK2 cells. The assay can be described thus: Planned Na/K ATPase expression and activity studies in cultured renal epithelial cells. Conditions: expected result.
Another assay has as its target AT4 receptor (Homo sapiens, UniProt Q9UIQ6). Conditions: AT4 receptor binding; cited from earlier work.

Regarding `CC(C)[C@H](N)CN[C@@H](Cc1ccc(O)cc1)C(=O)N[C@H](CN[C@@H](Cc1cnc[nH]1)C(=O)N1CCC[C@H]1C(=O)N[C@@H](Cc1ccccc1)C(=O)O)C(C)C`, the “regulation of Na/K ATPase by APN” value in assay [1] is on record as “reduce regulation”. Moreover, at AT4 receptor, the Bmax is 508+/−30 fmol/mg protein and the equilibrium dissociation constant (Kd) is 3 nM.

For orientation: Kd means the concentration at which binding is half-saturated.
